Assay results from US9212165B2, “Bicarbocyclic and tricarbocyclic ethynyl derivatives and uses of same” (H. Lundbeck A/S, priority 2011, dated 2015).

Sequences of proteins named here, by UniProt entry; tags and fusion partners are left off. Residues count along the entry.
UniProt P41594, 21-1212 limits assumed: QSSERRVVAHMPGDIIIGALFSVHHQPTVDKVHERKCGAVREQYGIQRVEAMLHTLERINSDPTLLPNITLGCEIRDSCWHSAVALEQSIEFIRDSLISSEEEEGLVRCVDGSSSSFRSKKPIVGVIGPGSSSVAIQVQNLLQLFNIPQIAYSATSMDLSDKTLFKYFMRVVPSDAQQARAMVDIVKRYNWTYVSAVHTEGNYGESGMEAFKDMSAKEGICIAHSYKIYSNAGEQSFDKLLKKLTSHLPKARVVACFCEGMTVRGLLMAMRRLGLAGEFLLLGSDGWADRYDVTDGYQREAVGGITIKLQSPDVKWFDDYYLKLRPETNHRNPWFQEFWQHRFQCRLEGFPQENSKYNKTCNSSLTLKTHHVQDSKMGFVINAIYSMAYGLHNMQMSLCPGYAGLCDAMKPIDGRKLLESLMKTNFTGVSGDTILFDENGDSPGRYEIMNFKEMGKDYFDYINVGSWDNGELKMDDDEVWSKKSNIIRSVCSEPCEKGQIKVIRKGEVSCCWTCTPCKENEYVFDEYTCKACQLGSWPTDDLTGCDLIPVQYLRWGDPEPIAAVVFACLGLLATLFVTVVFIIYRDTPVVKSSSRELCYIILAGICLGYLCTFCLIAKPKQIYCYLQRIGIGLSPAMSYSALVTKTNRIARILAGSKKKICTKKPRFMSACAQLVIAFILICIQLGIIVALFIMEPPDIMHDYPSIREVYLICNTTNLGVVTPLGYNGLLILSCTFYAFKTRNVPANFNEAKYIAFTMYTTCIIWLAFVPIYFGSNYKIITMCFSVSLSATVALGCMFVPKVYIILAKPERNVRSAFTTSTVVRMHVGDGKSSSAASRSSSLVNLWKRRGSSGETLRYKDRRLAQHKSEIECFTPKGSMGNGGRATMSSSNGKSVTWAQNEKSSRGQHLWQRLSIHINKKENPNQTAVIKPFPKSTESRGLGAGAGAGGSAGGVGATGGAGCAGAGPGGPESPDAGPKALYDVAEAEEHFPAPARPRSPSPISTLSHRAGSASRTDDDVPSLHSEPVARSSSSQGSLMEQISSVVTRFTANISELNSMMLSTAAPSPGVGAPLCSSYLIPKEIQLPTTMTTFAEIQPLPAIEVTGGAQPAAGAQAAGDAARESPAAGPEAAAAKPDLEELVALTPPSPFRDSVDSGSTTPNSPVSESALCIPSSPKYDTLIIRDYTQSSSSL

Assays:
[1] = target: rmGluR5 or hmGluR5 stably expressed in HEK 293 cell line (Homo sapiens, UniProt P41594); test: Calcium mobilization assay (FLIPR) for negative allosteric activity; type: cell-based, rat or human; settings: inhibition of EC80 glutamate response (NAM mode); read-out: FLIPR functional IC50
Method: Laser excitation energy was adjusted so that basal fluorescence readings were approximately 10,000 relative fluorescent units. […] Maximum change in fluorescence was calculated for each well. Concentration-response curves derived from the maximum change in fluorescence were analyzed by nonlinear regression (Hill equation).

[2] = target: mGluR5 (MPEP binding site) (Homo sapiens (Human), UniProt P41594); test: Radioligand binding assay (MPEP site radioligand, membrane filtration); settings: 5 nM radioligand binding to MPEP site; Cheng-Prusoff
Method: Binding assays were performed as described in [J. A. O'Brien et al. Mol Pharmacol., 2003, 64, 731-740] with slight modifications, including that a radioligand that binds to the […] (MPEP) binding site was used in place of [^3H] MPEP. Briefly, after thawing, the membrane homogenates were resuspended in 50 mM Tris-HCl and 0.9% NaCl binding buffer at pH 7.4 to a final assay concentration of 20 μg protein/well for radioligand filtration binding. Incubations included 5 nM radioligand, membranes and either buffer or varying concentrations of compound. Samples were incubated for 60 min at room temperature with shaking. Non-specific binding was defined with 10 μM cold MPEP when using the radioligand. After incubation, samples were filtered over a GF/C filter (presoaked in 0.25% polyethyleneimine (PEI)) and then washed 4 times using a Tomtec® Harvester 96® Mach III cell harvester (Tomtec, Hamden, Conn.) with 0.5 mL ice-cold 50 mM Tris-HCl (pH 7.4).
IC50 values were derived from the inhibition curve and Ki values were calculated according to the Cheng and Prusoff equation of Ki=IC50/(1+[L]/Kd) described in [Y. Cheng and W. H. Prusoff Biochem. Pharmacal. 1973, 22, 3099-3108] where [L] is the concentration of radioligand and Kd is its dissociation constant at the receptor, derived from the saturation isotherm. […]

Row | SMILES | IC50 [1] | Ki [2]
1 | O=C(N[C@]12CCC[C@](C#Cc3ccccn3)(CC1)C2)c1ccccn1 [Example 16, N-((1R,5S)-5-(pyridin-2-ylethynyl)bicyclo[3.2.1]octan-1-yl)picolinamide] | 1.6 nM | 4.5 nM
2 | O=C(N[C@]12CCC[C@](C#Cc3ccccn3)(CC1)C2)c1cnccn1 [Example 17] | 6.6 nM | 
3 | O=C(N[C@]12CCC[C@](C#Cc3ccccn3)(CC1)C2)c1ncccc1F [Example 23, 3-fluoro-N-((1R,5S)-5-(pyridin-2-ylethynyl)bicyclo[3.2.1]octan-1-yl)picolinamide] | 11 nM | 
4 | O=C(N[C@@]12CCC[C@@](C#Cc3ccccn3)(CC1)C2)c1ccccn1 [Example 26, N-((1S,5R)-5-(pyridin-2-ylethynyl)bicyclo[3.2.1]octan-1-yl)picolinamide] | 5.9 nM | 22 nM
5 | Cn1ccc(C(=O)N[C@@]23CCC[C@@](C#Cc4ccccn4)(CC2)C3)n1 [Example 32, 1-methyl-N-((1S,5R)-5-(pyridin-2-ylethynyl)bicyclo[3.2.1]octan-1-yl)-1H-pyrazole-3-carboxamide] | 17 nM | 
6 | Cc1nc(C(=O)N[C@]23CCC[C@](C#Cc4cnccn4)(CC2)C3)cs1 [Example 46, 2-methyl-N-((1R,5S)-5-(pyrazin-2-ylethynyl)bicyclo[3.2.1]octan-1-yl)thiazole-4-carboxamide] | 12 nM | 
7 | Cc1nc(C(=O)N[C@@]23CCC[C@@](C#Cc4cnccn4)(CC2)C3)cs1 [Example 51, 2-methyl-N-((1S,5R)-5-(pyrazin-2-ylethynyl)bicyclo[3.2.1]octan-1-yl)thiazole-4-carboxamide] | 83 nM | 
